# Structures can show the parent of a compound that is named as a salt.
# By UniProt entry, the sequences of proteins in these tests, tags left out.
# UniProt Q9NWZ3, whole entry: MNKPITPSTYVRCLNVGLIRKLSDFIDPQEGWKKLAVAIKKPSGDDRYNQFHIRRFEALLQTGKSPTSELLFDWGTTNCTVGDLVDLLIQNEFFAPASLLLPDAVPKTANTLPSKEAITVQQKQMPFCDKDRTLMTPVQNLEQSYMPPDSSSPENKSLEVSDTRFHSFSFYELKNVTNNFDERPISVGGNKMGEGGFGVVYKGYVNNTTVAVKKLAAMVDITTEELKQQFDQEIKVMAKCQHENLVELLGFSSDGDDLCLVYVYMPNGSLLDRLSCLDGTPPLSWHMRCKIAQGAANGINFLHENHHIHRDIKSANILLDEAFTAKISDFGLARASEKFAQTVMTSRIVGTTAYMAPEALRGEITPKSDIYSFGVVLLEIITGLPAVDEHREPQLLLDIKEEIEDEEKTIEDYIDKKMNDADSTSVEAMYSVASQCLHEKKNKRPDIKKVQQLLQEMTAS
# Biological target: IRAK4 (Homo sapiens (Human), UniProt Q9NWZ3)
# Assay: IRAK4 kinase activity, IMAP fluorescence polarization assay
# Assay type: biochemical
# Conditions: read-out: IRAK4 IC50; 100 μM ATP, 0.5 nM GST tagged IRAK4
row,Compound,IC50
1,"O=c1[nH]c(N2CCOCC2)nc(N[C@@H]2CCC[C@@H](O)C2)c1-c1nc2ccccc2s1 [Example 108, 5-(benzo[d]thiazol-2-yl)-6-(((1R,3R)-3-hydroxycyclohexyl)amino)-2-morpholinopyrimidin-4(3H)-one.HCl]",454 nM
2,"O=c1[nH]c(N2CCOCC2)nc(N[C@H]2CCCNC2)c1-c1nc2ccccc2s1 [Example 84, (S)-5-(Benzo[d]thiazol-2-yl)-2-morpholino-6-(piperidin-3-ylamino)pyrimidin-4(3H)-one.HCl]",255 nM
3,"O=C1CC[C@@H](Nc2nc(N3CCOCC3)[nH]c(=O)c2-c2nc3ccccc3s2)CN1 [Example 89, (R)-5-(Benzo[d]thiazol-2-yl)-2-morpholino-6-(6-oxopiperidin-3-ylamino)pyrimidin-4(3H)-one.HCl]",450 nM
4,"O=c1[nH]c(N2CCOCC2)nc(NC2CCCNC2)c1-c1nc2ccccc2s1 (stereo not drawn) [Example 106, 5-(benzo[d]thiazol-2-yl)-2-morpholino-6-(piperidin-3-ylamino)pyrimidin-4(3H)-one]",244 nM
5,"O=c1[nH]c(N2CCOCC2)nc(NC2CCNCC2)c1-c1nc2ccccc2s1 [Example 88, 5-(Benzo[d]thiazol-2-yl)-2-morpholino-6-(piperidin-4-ylamino)pyrimidin-4(3H)-one HCl]",121 nM
6,"O=c1[nH]c(N2CCOCC2)nc(NC2CCCC(O)C2)c1-c1nc2ccccc2s1 (stereo not drawn) [Example 96, 5-(Benzo[d]thiazol-2-yl)-6-(3-hydroxycyclohexylamino)-2-morpholinopyrimidin-4(3H)-one.HCl]",1800 nM

# More lines, now with the values ahead:
row,IC50,Compound
1,73 nM,"Cc1cc(Nc2nc(N[C@@H]3C[C@H](CO)[C@@H](O)[C@H]3O)c(-c3nc4ccccc4s3)c(=O)[nH]2)cc(C)n1 [Example 50, 5-(Benzo[d]thiazol-2-yl)-6-(((1R,2S,3R,4R)-2,3-dihydroxy-4-(hydroxymethyl)cyclopentyl)amino)-2-((2,6-dimethylpyridin-4-yl)amino)pyrimidin-4(3H)-one.HCl]"
2,635 nM,"Cc1nc(N[C@@H]2C[C@H](CO)[C@@H](O)[C@H]2O)c(-c2nc3ccccc3s2)c(=O)[nH]1 [Example 62, 5-(Benzo[d]thiazol-2-yl)-6-((1R,2S,3R,4R)-2,3-dihydroxy-4-(hydroxymethyl)cyclopentylamino)-2-methylpyrimidin-4(3H)-one.HCl]"
3,43 nM,"O=c1[nH]c(N2CCCCC2)nc(N[C@@H]2C[C@H](CO)[C@@H](O)[C@H]2O)c1-c1nc2ccccc2s1 [Example 26, 5-(Benzo[d]thiazol-2-yl)-6-(((1R,2S,3R,4R)-2,3-dihydroxy-4-(hydroxymethyl)cyclopentyl)amino)-2-(piperidin-1-yl)pyrimidin-4(3H)-one.HCl]"
4,43 nM,"CN1CCN(c2nc(N[C@@H]3C[C@H](CO)[C@@H](O)[C@H]3O)c(-c3nc4ccccc4s3)c(=O)[nH]2)CC1 [Example 28, 5-(Benzo[d]thiazol-2-yl)-6-(((1R,2S,3R,4R)-2,3-dihydroxy-4-(hydroxymethyl)cyclopentyl)amino)-2-(4-methylpiperazin-1-yl)pyrimidin-4(3H)-one.HCl]"
5,11 nM,"O=c1[nH]c(N2CCOCC2)nc(N[C@@H]2C[C@H](CO)[C@@H](O)[C@H]2O)c1-c1nc2ccccc2s1 [Example 24, 5-(Benzo[d]thiazol-2-yl)-6-(((1R,2S,3R,4R)-2,3-dihydroxy-4-(hydroxymethyl)cyclopentyl)amino)-2-morpholinopyrimidin-4(3H)-one.HCl]"
6,19 nM,"O=c1[nH]c(N2CCOCC2)nc(N[C@@H]2CCCNC2)c1-c1nc2ccccc2s1 [Example 83, (R)-5-(Benzo[d]thiazol-2-yl)-2-morpholino-6-(piperidin-3-ylamino)pyrimidin-4(3H)-one]"
